Data taken from ChEMBL document CHEMBL3885861, “Open TG-GATES”.

Columns and labels:
[1] = organism: Rattus norvegicus; assay: Open TG-GATES - Regimen: Daily Repeat; type: toxicity, organism-based, Sprague-Dawley; parameters: regimen Daily Repeat, gender Male, age 6 weeks; conditions: in vivo, po, route gavage
[2] = organism: Rattus norvegicus; assay: Open TG-GATES - Regimen: Single; type: toxicity, organism-based, Sprague-Dawley; parameters: regimen Single, gender Male, age 6 weeks; conditions: in vivo, po, route gavage
[3] = 0 mg/kg, 72 h, tissue Plasma, dose level Control, time 3 day
[4] = 0 mg/kg, […], tissue Plasma, dose level Control, time 7 day
[5] = 0 mg/kg, […], tissue Plasma, dose level Control, time 14 day
[6] = 0 mg/kg, […], tissue Plasma, dose level Control, time 28 day
[7] = 0 mg/kg, 3 h, tissue Plasma, dose level Control
[8] = 0 mg/kg, 6 h, tissue Plasma, dose level Control
[9] = 0 mg/kg, 9 h, tissue Plasma, dose level Control
[10] = 0 mg/kg, 24 h, tissue Plasma, dose level Control
[11] = 100 mg/kg, 3 h, tissue Plasma, dose level Low
[12] = 100 mg/kg, 6 h, tissue Plasma, dose level Low
[13] = 100 mg/kg, 9 h, tissue Plasma, dose level Low
[14] = 100 mg/kg, 24 h, tissue Plasma, dose level Low
[15] = 300 mg/kg, 3 h, tissue Plasma, dose level Middle
[16] = 300 mg/kg, 6 h, tissue Plasma, dose level Middle
[17] = 300 mg/kg, 9 h, tissue Plasma, dose level Middle
[18] = 300 mg/kg, 24 h, tissue Plasma, dose level Middle
[19] = 1000 mg/kg, 3 h, tissue Plasma, dose level High
[20] = 1000 mg/kg, 6 h, tissue Plasma, dose level High
[21] = 1000 mg/kg, 9 h, tissue Plasma, dose level High
[22] = 1000 mg/kg, 24 h, tissue Plasma, dose level High
[23] = 10 mg/kg, […], tissue Plasma, dose level Low, time 28 day
[24] = 100 mg/kg, […], tissue Plasma, dose level High, time 28 day

Clc1ccccc1CN1CCc2sccc2C1 [TICLOPIDINE]
Ca [1, 3]: 10.8 mg/dL
TG [1, 3]: 101.8 mg/dL
Ca [1, 4]: 10.7 mg/dL
Ca [1, 5]: 10.6 mg/dL
Ca [1, 6]: 10.8 mg/dL
Ca ([1]; 30 mg/kg, 72 h, tissue Plasma, dose level Low, time 3 day): 10.8 mg/dL
Ca ([1]; 30 mg/kg, […], tissue Plasma, dose level Low, time 7 day): 10.6 mg/dL
Ca ([1]; 30 mg/kg, […], tissue Plasma, dose level Low, time 14 day): 10.7 mg/dL
Ca ([1]; 30 mg/kg, […], tissue Plasma, dose level Low, time 28 day): 10.5 mg/dL
Ca ([1]; 100 mg/kg, 72 h, tissue Plasma, dose level Middle, time 3 day): 10.9 mg/dL
Ca ([1]; 100 mg/kg, […], tissue Plasma, dose level Middle, time 7 day): 10.7 mg/dL
Ca ([1]; 100 mg/kg, […], tissue Plasma, dose level Middle, time 14 day): 10.5 mg/dL
Ca ([1]; 100 mg/kg, […], tissue Plasma, dose level Middle, time 28 day): 10.7 mg/dL
Ca ([1]; 300 mg/kg, 72 h, tissue Plasma, dose level High, time 3 day): 10.2 mg/dL
Ca ([1]; 300 mg/kg, […], tissue Plasma, dose level High, time 7 day): 10.7 mg/dL
Ca ([1]; 300 mg/kg, […], tissue Plasma, dose level High, time 14 day): 10.6 mg/dL
Ca ([1]; 300 mg/kg, […], tissue Plasma, dose level High, time 28 day): 10.8 mg/dL
BUN [2, 7]: 11.6 mg/dL
Ca [2, 7]: 10.7 mg/dL
TG [2, 7]: 50 mg/dL
BUN [2, 8]: 9.8 mg/dL
Ca [2, 8]: 10.7 mg/dL
TG [2, 8]: 41 mg/dL
BUN [2, 9]: 10.4 mg/dL
Ca [2, 9]: 10.4 mg/dL
TG [2, 9]: 34.2 mg/dL
BUN [2, 10]: 13.6 mg/dL
Ca [2, 10]: 10.7 mg/dL
TG [2, 10]: 68 mg/dL
BUN [2, 11]: 10 mg/dL
Ca [2, 11]: 10.6 mg/dL
TG [2, 11]: 57.8 mg/dL
BUN [2, 12]: 10.6 mg/dL
Ca [2, 12]: 10.4 mg/dL
TG [2, 12]: 45 mg/dL
BUN [2, 13]: 11.2 mg/dL
Ca [2, 13]: 10.5 mg/dL
TG [2, 13]: 36.8 mg/dL
BUN [2, 14]: 14.4 mg/dL
Ca [2, 14]: 10.7 mg/dL
TG [2, 14]: 76.2 mg/dL
BUN [2, 15]: 10.6 mg/dL
Ca [2, 15]: 10.3 mg/dL
TG [2, 15]: 31 mg/dL
BUN [2, 16]: 10.4 mg/dL
Ca [2, 16]: 10.4 mg/dL
TG [2, 16]: 33 mg/dL
BUN [2, 17]: 10.2 mg/dL
Ca [2, 17]: 10.2 mg/dL
TG [2, 17]: 27.4 mg/dL
BUN [2, 18]: 13.4 mg/dL
Ca [2, 18]: 10.8 mg/dL
TG [2, 18]: 86.2 mg/dL
BUN [2, 19]: 10 mg/dL
Ca [2, 19]: 10.3 mg/dL
TG [2, 19]: 34.6 mg/dL
BUN [2, 20]: 9.8 mg/dL
Ca [2, 20]: 10.2 mg/dL
TG [2, 20]: 28.2 mg/dL
BUN [2, 21]: 10.6 mg/dL
Ca [2, 21]: 10.4 mg/dL
TG [2, 21]: 46.6 mg/dL
BUN [2, 22]: 10.8 mg/dL
Ca [2, 22]: 10.5 mg/dL
TG [2, 22]: 60 mg/dL

CN(C)CCC=C1c2ccccc2COc2ccccc21 [DOXEPIN]
A/G [1, 3]: 0.9
A/G [1, 4]: 0.9
Cl [1, 4]: 105 meq/L
A/G [1, 5]: 0.8
A/G [1, 6]: 0.8
LIVER ([1]; 10 mg/kg, 72 h, tissue Liver, dose level Low, time 3 day): 10.5 g
A/G ([1]; 10 mg/kg, 72 h, tissue Plasma, dose level Low, time 3 day): 0.9
A/G ([1]; 10 mg/kg, […], tissue Plasma, dose level Low, time 7 day): 0.8
A/G ([1]; 10 mg/kg, […], tissue Plasma, dose level Low, time 14 day): 0.8
A/G [1, 23]: 0.8
Ca [1, 23]: 10.5 mg/dL
A/G ([1]; 30 mg/kg, 72 h, tissue Plasma, dose level Middle, time 3 day): 0.9
A/G ([1]; 30 mg/kg, […], tissue Plasma, dose level Middle, time 7 day): 0.9
A/G ([1]; 30 mg/kg, […], tissue Plasma, dose level Middle, time 14 day): 0.8
A/G ([1]; 30 mg/kg, […], tissue Plasma, dose level Middle, time 28 day): 0.8
A/G ([1]; 100 mg/kg, 72 h, tissue Plasma, dose level High, time 3 day): 0.9
A/G ([1]; 100 mg/kg, […], tissue Plasma, dose level High, time 7 day): 0.8
A/G ([1]; 100 mg/kg, […], tissue Plasma, dose level High, time 14 day): 0.8
A/G [1, 24]: 0.9
Ca [1, 24]: 10.5 mg/dL
A/G [2, 7]: 0.9
A/G [2, 8]: 0.9
A/G [2, 9]: 0.9
A/G [2, 10]: 0.8
Cl [2, 10]: 105 meq/L
A/G [2, 11]: 0.8
A/G [2, 12]: 0.9
A/G [2, 13]: 0.9
A/G [2, 14]: 0.9
A/G [2, 15]: 0.9
A/G [2, 16]: 0.9
Ca [2, 16]: 10.5 mg/dL
A/G [2, 17]: 0.9
PT ([2]; 300 mg/kg, 24 h, tissue Blood, dose level Middle): 13.8 s
A/G [2, 18]: 0.9
BUN [2, 18]: 13.8 mg/dL
Ca [2, 18]: 10.5 mg/dL
